## AlphaSeq binding of Ab-95 light chain variants to a spike HR2 peptide

Source: Engelhart et al. 2022 (doi:10.1038/s41597-022-01779-4), MIT Lincoln Laboratory and A-Alpha Bio; data file from the FLAb repository.

Antigen: PDVDLGDISGINAS, a 14-residue peptide of the SARS-CoV-2 spike HR2 region.

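Variants in AAYL52 differ from the parent at up to three CDR positions; double and triple changes were sampled at random. Affinity was read by AlphaSeq, a pooled yeast mating assay with surface-displayed partners. Binding brings cells together so that they mate, and sequencing counts the barcode pairs among the diploids. The ratio of observed to expected reads was calibrated, replicate by replicate, on BCL2-family standards whose Kd was known from biolayer interferometry. The assay was run in three technical replicates.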

Ab-95 is the parent antibody, in scFv form: VH, then the linker GGGGSGGGGSGGGGS, then VL. The heavy chain is unchanged in all variants.
VH: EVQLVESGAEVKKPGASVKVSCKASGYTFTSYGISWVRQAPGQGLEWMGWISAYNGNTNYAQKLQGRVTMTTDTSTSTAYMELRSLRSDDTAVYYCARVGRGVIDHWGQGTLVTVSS
VL: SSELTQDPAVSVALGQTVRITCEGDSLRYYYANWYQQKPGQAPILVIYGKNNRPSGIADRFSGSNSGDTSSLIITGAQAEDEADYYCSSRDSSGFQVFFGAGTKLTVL

Each variant's VL is given in full.
The Kd shown is the geometric mean over detected replicates; a lower Kd is a better binder.
A pair that was not seen in any replicate is written "not detected"; this usually means weak binding, but a binder can also be missed.
Empty control strains, which show no peptide, gave a signal in 28% of pairings with library AAYL52; the median was 8.2 µM and 95% of these signals were weaker than 800 nM. No background was subtracted.
For reference, the parent read 200 nM as the reference entry and 180 nM as a member of this library.

{"VL": "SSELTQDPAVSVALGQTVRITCSGDSLRGYYANWYQQKPGQAPILVIYGKNNRPSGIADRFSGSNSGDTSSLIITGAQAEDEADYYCSHRDSSGFQVFFGAGTKLTVL", "Kd (apparent)": "190 nM", "detected": "3 of 3"}
{"VL": "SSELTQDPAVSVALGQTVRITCEGDSLRIYYHNWYQQKPGQAPILVIYGKNNRPSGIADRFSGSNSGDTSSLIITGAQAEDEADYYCISRDSSGFQVFFGAGTKLTVL", "Kd (apparent)": "9.8 µM", "detected": "3 of 3"}
{"VL": "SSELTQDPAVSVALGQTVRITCEGCSVRYYYANWYQQKPGQAPILVIYGKNNRPSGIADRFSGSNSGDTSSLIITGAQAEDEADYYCSSRDSSGNQVFFGAGTKLTVL", "Kd (apparent)": "19 µM", "detected": "2 of 3"}
{"VL": "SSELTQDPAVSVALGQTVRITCEGDSLRYYYANWYQQKPGQAPILVIYGKNQRPSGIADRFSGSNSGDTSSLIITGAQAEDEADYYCSSRMQSGFQVFFGAGTKLTVL", "Kd (apparent)": "2.9 µM", "detected": "1 of 3"}
{"VL": "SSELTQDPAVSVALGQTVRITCEGDSLRYYYANWYQQKPGQAPILVIYGKENEPSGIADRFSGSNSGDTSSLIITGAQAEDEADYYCTSRDSSGFQVFFGAGTKLTVL", "Kd (apparent)": "54 µM", "detected": "2 of 3"}
{"VL": "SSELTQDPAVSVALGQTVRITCEGDSLRYYYANWYQQKPGQAPILVIYGKENRPSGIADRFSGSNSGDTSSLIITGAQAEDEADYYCSSRDSSPFQGFFGAGTKLTVL", "Kd (apparent)": "1.2 µM", "detected": "2 of 3"}
{"VL": "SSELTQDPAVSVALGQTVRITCEGDWLRHCYANWYQQKPGQAPILVIYGKNNRPSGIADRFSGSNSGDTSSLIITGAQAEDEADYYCSSRDSSGFQVFFGAGTKLTVL", "Kd (apparent)": "300 nM", "detected": "3 of 3"}
{"VL": "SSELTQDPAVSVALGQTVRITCEGDSLRKTYANWYQQKPGQAPILVIYGKNNRPSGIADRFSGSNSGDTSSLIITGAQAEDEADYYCSSRKSSGFQVFFGAGTKLTVL", "Kd (apparent)": "180 nM", "detected": "3 of 3"}
{"VL": "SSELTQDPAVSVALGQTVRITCEGDSLYYYYANWYQQKPGQAPILVIYGKNNRPSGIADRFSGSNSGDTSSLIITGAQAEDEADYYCSSRCSSGFQHFFGAGTKLTVL", "Kd (apparent)": "8.0 µM", "detected": "3 of 3"}
{"VL": "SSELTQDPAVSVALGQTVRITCEGDSLRYYYANWYQQKPGQAPILVIYGKNNNPSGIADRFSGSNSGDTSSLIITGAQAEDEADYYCSSNDSSGFQAFFGAGTKLTVL", "Kd (apparent)": "20 µM", "detected": "1 of 3"}
{"VL": "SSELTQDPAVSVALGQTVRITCEGDSLRYYYANWYQQKPGQAPILVIYGKNNRPPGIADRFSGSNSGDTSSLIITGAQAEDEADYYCSSRDISGFQVFFGAGTKLTVL", "Kd (apparent)": "910 nM", "detected": "3 of 3"}
{"VL": "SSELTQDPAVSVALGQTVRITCEGDSLRYIYINWYQQKPGQAPILVIYGKNNRPSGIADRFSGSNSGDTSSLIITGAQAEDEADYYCSSRDSSGFQVFFGAGTKLTVL", "Kd (apparent)": "250 µM", "detected": "1 of 3"}
{"VL": "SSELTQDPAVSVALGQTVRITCEGGSLRTRYANWYQQKPGQAPILVIYGKNNRPSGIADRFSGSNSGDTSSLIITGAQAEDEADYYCSSRDSSGFQVFFGAGTKLTVL", "Kd (apparent)": "31 nM", "detected": "3 of 3"}
{"VL": "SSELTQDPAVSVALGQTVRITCEGDMLRYYYANWYQQKPGQAPILVIYLKNNRPSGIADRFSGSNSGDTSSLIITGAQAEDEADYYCSSYDSSGFQVFFGAGTKLTVL", "Kd (apparent)": "not detected", "detected": "0 of 3"}
{"VL": "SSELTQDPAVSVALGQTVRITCEGDSKRYYYANWYQQKPGQAPILVIYGYNNRPSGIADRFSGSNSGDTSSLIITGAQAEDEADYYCSSRDSSGFQPFFGAGTKLTVL", "Kd (apparent)": "2.8 µM", "detected": "1 of 3"}
{"VL": "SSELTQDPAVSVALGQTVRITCEGDSLRYYYANWYQQKPGQAPILVIYGKNNWDSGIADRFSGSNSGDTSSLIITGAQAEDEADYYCSARDSSGFQVFFGAGTKLTVL", "Kd (apparent)": "6.2 µM", "detected": "3 of 3"}
{"VL": "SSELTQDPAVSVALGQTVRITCEGDSLRYYQANWYQQKPGQAPILVIYGKNIRPSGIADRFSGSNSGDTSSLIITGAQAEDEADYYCSSDDSSGFQVFFGAGTKLTVL", "Kd (apparent)": "1.4 µM", "detected": "3 of 3"}
{"VL": "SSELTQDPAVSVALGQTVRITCEGDSLRYYTANWYQQKPGQAPILVIYGKNVRPSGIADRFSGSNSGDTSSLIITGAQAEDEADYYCSRRDSSGFQVFFGAGTKLTVL", "Kd (apparent)": "260 nM", "detected": "3 of 3"}
{"VL": "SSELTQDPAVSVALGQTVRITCEGDSLRYYYAVWYQQKPGQAPILVIYGKNNRPQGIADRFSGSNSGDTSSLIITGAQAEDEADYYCSYRDSSGFQVFFGAGTKLTVL", "Kd (apparent)": "not detected", "detected": "0 of 3"}
{"VL": "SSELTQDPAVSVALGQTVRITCEGDSLRYYMANWYQQKPGQAPILVIYGKNNRPSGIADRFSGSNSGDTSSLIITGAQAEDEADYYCSSIDSSGFCVFFGAGTKLTVL", "Kd (apparent)": "130 nM", "detected": "3 of 3"}
{"VL": "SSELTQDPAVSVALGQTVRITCEGDMLRVYYANWYQQKPGQAPILVIYGKNNRPSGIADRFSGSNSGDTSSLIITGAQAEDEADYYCSPRDSSGFQVFFGAGTKLTVL", "Kd (apparent)": "290 nM", "detected": "3 of 3"}
{"VL": "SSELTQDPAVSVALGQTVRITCEGDSGRYYYANWYQQKPGQAPILVIYGKNNRPVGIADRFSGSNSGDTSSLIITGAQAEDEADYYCSSRDSSGFQCFFGAGTKLTVL", "Kd (apparent)": "1.4 µM", "detected": "1 of 3"}
{"VL": "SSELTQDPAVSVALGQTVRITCEGDSLRYYYANWYQQKPGQAPILVIYGHNNRPSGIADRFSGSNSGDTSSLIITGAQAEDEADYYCSSRDHSGLQVFFGAGTKLTVL", "Kd (apparent)": "4.5 µM", "detected": "3 of 3"}
{"VL": "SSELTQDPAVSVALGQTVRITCESDSLRYYYYNWYQQKPGQAPILVIYGINNRPSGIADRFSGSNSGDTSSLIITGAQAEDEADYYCSSRDSSGFQVFFGAGTKLTVL", "Kd (apparent)": "4.3 µM", "detected": "2 of 3"}
{"VL": "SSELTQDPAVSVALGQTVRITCEGDEKFYYYANWYQQKPGQAPILVIYGKNNRPSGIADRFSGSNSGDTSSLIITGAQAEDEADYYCSSRDSSGFQVFFGAGTKLTVL", "Kd (apparent)": "330 µM", "detected": "1 of 3"}

The first 2 variants above that were never detected:

{"VL": "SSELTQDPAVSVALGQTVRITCEGDMLRYYYANWYQQKPGQAPILVIYLKNNRPSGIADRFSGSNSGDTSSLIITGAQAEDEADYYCSSYDSSGFQVFFGAGTKLTVL", "Kd (apparent)": "not detected", "detected": "0 of 3"}
{"VL": "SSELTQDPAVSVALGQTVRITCEGDSLRYYYAVWYQQKPGQAPILVIYGKNNRPQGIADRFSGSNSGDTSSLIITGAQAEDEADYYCSYRDSSGFQVFFGAGTKLTVL", "Kd (apparent)": "not detected", "detected": "0 of 3"}